Screening results: PubChem BioAssay, several laboratories
Yeast UUG start: yeast start codon fidelity modulation; activity score, % at 18.7 µM; actives 0.13% (n = 350,000); S. cerevisiae UUG-firefly luciferase reporter, luminescence/redox ratio; AID 602363;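 active means replicate mean at a twofold rise or more, about +100% in these data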;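 further: firefly luciferase made from a UUG start codon reports start codon fidelity; reporter light over untreated wells divided by growth signal over untreated wells; some hits fall short of that in this replicate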
NALP1 inh: inhibitors of NALP1 inflammasome in yeast; inhibition, % at 10 µM; 0.61% of 280,000 active; S. cerevisiae NALP1/ASC/caspase-1 growth, X-gal OD620, 72 h; in the data active means inhibition mostly above about 24%, no sharp cut-off; inactive means mostly below about 32%
MC4R barr agon: activates human MC4R beta-arrestin recruitment | U2OS MC4R beta-arrestin complementation, luminescence; percent of melanotan II response, DMSO zero | activation, % at 8.9 µM | 0.98% of 360,000 active | AID 540308;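 active means activation above a per-plate cutoff, the mean activation of sample wells on that plate plus 3 SD, cut at about 8% in these data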
MC4R antag cAMP: human MC4R antagonism in cAMP assay; MC4R-expressing cells, MTII-stimulated cAMP, LANCE TR-FRET; inhibition, % at 6.5 µM; 0.48% of 360,000 active; AID 540295;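 active means inhibition above its plate's cutoff, the mean of tested wells on that plate plus 3 SD, cut at about 29% in these data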
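Material – human MC4R-expressing U2OS cells · Repeats – no replicates · Detection – TR-FRET with Eu-cAMP and labeled anti-cAMP, 671 nm · Times – compound 30 min, challenge 1 h, detection 1 h · Compound – single nominal compound dose of 6.5 µM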
ALR H2O2 inh: human ALR oxidase inhibition via reduced H2O2. P55789. purified ALR, DTT oxidation, H2O2 HRP-luminol luminescence. inhibition, % (no concentration beside the values). 3.8% of 290,000 active. AID 485317;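 active means mean and each replicate at 75% or more; inconclusive means only one of the two met; inactive means neither met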;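 further: stock transfer was 7.5 nL into about 7.5 µL; 0% = neutral wells and 100% = wells with inactivated enzyme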
HDAC3 inhib: human HDAC3 inhibition; 0.15% of 320,000 active; AID 2718; recombinant HDAC3, fluorogenic peptide/trypsin coupled, fluorescence; inhibition, % at 8.3 µM; O15379; in the data active means inhibition above about 26%, passing the limit was not always enough
A number is an active result; – = inactive; · = no result given. The list is not random: actives were taken first. Their share in the collection is about 4.2%.

SMILES	Yeast UUG start	NALP1 inh	MC4R barr agon	MC4R antag cAMP	ALR H2O2 inh	HDAC3 inhib
CCC(C)NC(=O)c1ccc(CSc2nc3ccncc3n2Cc2ccc(F)cc2)cc1 (stereo not given)	–	–	–	–	–	–
CN1CCN(C(=O)c2ccc(CSc3nc4ccncc4n3Cc3ccc(F)cc3)cc2)CC1	–	–	–	–	–	–
O=C(NC1CCCC1)c1ccc(CSc2nc3ccncc3n2Cc2ccc(F)cc2)cc1	–	–	–	–	99	–
O=C(N[C@@H]1CC[C@H](CCn2cc(C3CCCCC3)nn2)O[C@@H]1CO)c1cccnc1	–	·	·	·	·	·
C[C@@H]1CCCCO[C@H](CN(C)Cc2ccc3c(c2)OCO3)[C@H](C)CN([C@@H](C)CO)C(=O)c2cc(NC(=O)Nc3cccc4ccccc34)ccc2O1	–	·	·	·	·	·
O=C(Cc1ccncc1)N1CC[C@@H]2[C@H]1c1cc(-c3cccc(F)c3)ccc1N[C@@H]2CO	–	·	·	·	·	·
CCCCOC(=O)/C=C/c1ccc(OC(=O)OC)c(OC(=O)OC)c1	·	–	–	–	–	–
COC(=O)Oc1ccc(/C=C/C(=O)OC(C)C)cc1OC(=O)OC	–	–	–	–	95	–
O=C(c1ccc(S(=O)(=O)c2ccc(F)cc2)c([N+](=O)[O-])c1)N1CCCCCC1	–	–	–	–	96	–
Cc1cccc(N2CCN(C(=O)c3ccc(NC(=O)C4CCCO4)cc3)CC2C)c1 (stereo not given)	–	–	–	–	99	–
Cc1cccc(N2CCN(C(=O)c3ccc4c(c3)OCCO4)CC2C)c1 (stereo not given)	–	–	–	–	–	–
Cc1cccc(N2CCN(C(=O)c3ccncc3)CC2C)c1 (stereo not given)	–	–	–	–	98	–
O=C(Nc1ccc(O)cc1)C1CCCO1 (stereo not given)	–	–	–	–	99	–
Cc1cccc(N2CCN(C(=O)c3cn4ccccc4n3)CC2C)c1 (stereo not given)	–	–	–	–	83	–
O=C(Nc1ccc(F)cc1)C1CCCO1 (stereo not given)	·	–	–	–	–	–
O=C(C[C@@H]1CC[C@@H]2NC[C@H](O)COC[C@H]2O1)Nc1ccccc1	–	·	·	·	·	·
CCC(=O)N(C)C[C@@H]1Oc2cc(C#CCOC)ccc2S(=O)(=O)N([C@H](C)CO)C[C@@H]1C	–	·	·	·	·	·
CN(C)C(=S)Nc1cccc(-c2n[nH]c(=S)o2)c1	·	–	–	–	–	–
NNC(=S)Nc1cccc(-c2n[nH]c(=S)o2)c1	–	·	–	–	98	–
CC(C)C#Cc1ccc2c(c1)O[C@@H](CN(C)C(=O)c1cccnc1)[C@@H](C)CN([C@@H](C)CO)S2(=O)=O	–	·	·	·	·	·
NNC(=O)c1csc(-c2ccc(C(F)(F)F)cc2Cl)n1	·	–	–	–	93	–
CNC(=O)NNC(=O)c1csc(-c2ccc(C(F)(F)F)cc2Cl)n1	–	·	–	–	–	–
C[C@@H]1CN([C@H](C)CO)S(=O)(=O)c2ccc(C#CC(C)(C)O)cc2O[C@H]1CN(C)C	–	·	·	·	·	·
COc1ccc(NC(=O)CSc2nc(NS(=O)(=O)c3ccccc3)cc(=O)[nH]2)cc1	·	–	–	–	100	–
Cc1ccc(S(=O)(=O)Nc2cc(=O)[nH]c(SCC(=O)Nc3cccc(C(F)(F)F)c3)n2)cc1	–	–	–	–	·	·
SMILES	Yeast UUG start	NALP1 inh	MC4R barr agon	MC4R antag cAMP	ALR H2O2 inh	HDAC3 inhib
Cc1ccc(NC(=O)CSc2nc(NS(=O)(=O)c3ccc(C)cc3)cc(=O)[nH]2)cc1	–	–	–	–	98	–
Cc1ccc(S(=O)(=O)Nc2cc(=O)[nH]c(SCc3ccccc3Cl)n2)cc1	·	–	–	–	96	–
Cc1cc(C)cc(NC(=O)CSc2ncc(S(=O)(=O)c3ccccc3)c(=O)[nH]2)c1	·	–	·	·	99	–
C[C@H](CO)N1C[C@H](C)[C@@H](CN(C)CC2CCCCC2)Oc2ccc(NC(=O)Cc3ccccc3)cc2CC1=O	–	·	·	·	·	·
O=C(C[C@H]1CC[C@H](NC(=O)c2ccccc2)[C@H](CO)O1)NCc1ccncn1	–	·	·	·	·	·
Cc1cccc(NC(=O)CSc2nc(NS(=O)(=O)c3ccccc3)cc(=O)[nH]2)c1	·	–	–	–	99	–
Cc1cc(NC(=O)c2ccoc2C)ccc1Br	·	·	–	–	89	–
Cc1ccc(NC(=O)c2ccoc2C)cc1C	·	–	–	–	–	–
C#CCn1c(=NC(=O)CSCC(=O)N2CCOCC2)sc2ccccc21	–	–	–	–	96	–
COc1cccc(N2CCN(Cc3nc(N)nc(Nc4ccccc4)n3)CC2)c1	–	–	–	–	97	–
Cc1cccc(Nc2nc(N)nc(CN3CCN(c4ccccc4)CC3)n2)c1	–	–	–	–	80	–
Cc1cccc(Nc2nc(N)nc(CN3CCN(c4ccccc4F)CC3)n2)c1	–	·	–	–	–	–
COc1cccc(N2CCN(Cc3nnnn3C3CCCCC3)CC2)c1	·	–	–	–	89	–
COc1ccc(Nc2nc(N)nc(CN3CCN(c4ccc(F)cc4)CC3)n2)cc1	–	–	–	–	99	–
C[C@H]1CN([C@@H](C)CO)C(=O)c2cc(C#CCN(C)C)cnc2O[C@H]1CN(C)S(=O)(=O)c1ccccc1	–	·	·	·	·	·
CC(C)NC(=O)c1ccc2c(=O)n(CC3CCCO3)c(=S)[nH]c2c1 (stereo not given)	·	–	–	–	–	–
COCCCNC(=O)c1ccc2c(=O)n(CC3CCCO3)c(=S)[nH]c2c1 (stereo not given)	–	–	–	–	87	–
CCCCCn1c(=O)[nH]c2cc(C(=O)NCCCN3CCC(C)CC3)ccc2c1=O	–	32	–	–	–	–
Nc1ccccc1C(O)(Cc1ccccc1)c1ccccc1 (stereo not given)	–	–	–	–	99	–
OC(Cc1cccnc1)(c1ccccc1)c1ccccc1	·	·	–	–	·	·
C[C@H]1CN([C@@H](C)CO)S(=O)(=O)c2ccc(-c3cccnc3)cc2O[C@H]1CN(C)C(=O)C1CCC1	–	·	·	·	·	·
CN(C)C(=O)C[C@H]1C[C@@H]2c3cc(NC(=O)Nc4ccccc4)ccc3O[C@@H]2[C@H](CO)O1	–	·	·	·	·	·
O=C(O)C[C@@H]1C[C@@H]2c3cc(NC(=O)CC4CC4)ccc3O[C@@H]2[C@H](CO)O1	–	·	·	·	·	·
O=C(O)C[C@@H]1C[C@@H]2c3cc(NC(=O)CC4CC4)ccc3O[C@@H]2[C@@H](CO)O1	50	·	·	·	·	·
CN(C)C(=O)C[C@@H]1C[C@@H]2c3cc(NC(=O)Nc4ccccc4)ccc3O[C@@H]2[C@@H](CO)O1	43	·	·	·	·	·
CCc1ccc(NC(=O)c2ccc3nc(N)sc3c2)cc1	–	40	–	–	91	–
CN(C(=O)c1ccc2nc(N)sc2c1)c1ccccc1	–	–	–	–	–	–
Nc1nc2ccc(C(=O)Nc3ccccc3)cc2s1	–	–	–	–	98	–
